This series in a line: In-vivo absorbency (plasma concentrations & pharmacokinetic parameters). Particulars: rat, iv, 20 mg/kg, SD male rat, two compartment model. The text has this:
The blood samples from the femoral vein of the rats were taken every hour after administration, and analyzed by bio-assay(agar well method).
Tested animal: SD male Rat (220~340 g)

Like-named read-outs stand apart in the source and are kept apart here.

As to `CC(C)(O/N=C(\C(=O)N[C@@H]1C(=O)N2C(C(=O)[O-])=C(C[n+]3ccccc3)CS[C@H]12)c1csc(N)n1)C(=O)O` [Ceftazidime, reference compound], the half-life runs as follows: (read-out: T1/2 (α)) 5 min; (read-out: T1/2 (β)) 20 min.

Values taken from US5202315A, “Cephalosporin compounds” (Lucky, Ltd., priority 1989, dated 1993).
